# scFv variants of Ab-14 (light chain) against a SARS-CoV-2 spike peptide

Antigen: PDVDLGDISGINAS, a 14-residue peptide of the SARS-CoV-2 spike HR2 region.

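Phage display of a naive human antibody library on the peptide gave the parent. Variants in AAYL50 differ from the parent at up to three CDR positions; double and triple changes were sampled at random. Affinity was read by AlphaSeq, a pooled yeast mating assay with surface-displayed partners. The frequency of each diploid, read from paired DNA barcodes, reflects how well the two displayed proteins bind. The ratio of observed to expected reads was calibrated, replicate by replicate, on BCL2-family standards whose Kd was known from biolayer interferometry. There are three technical replicates.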

Parent: Ab-14, a human scFv built as VH, a (GGGGS)3 linker, VL. Only the CDRs of the light chain vary.
VH: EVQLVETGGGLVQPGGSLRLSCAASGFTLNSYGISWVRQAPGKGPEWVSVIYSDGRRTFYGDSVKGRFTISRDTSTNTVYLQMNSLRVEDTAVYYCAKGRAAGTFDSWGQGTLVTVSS
VL: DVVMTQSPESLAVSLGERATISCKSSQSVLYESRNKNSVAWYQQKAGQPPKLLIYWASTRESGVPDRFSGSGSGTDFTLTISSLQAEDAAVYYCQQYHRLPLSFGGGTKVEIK

Changes read parent residue, position, new residue, counted from the first residue of the VL shown.
Affinities are written as log10 Kd with Kd in nM; a lower number is a better binder.
Replicates are averaged; those with no signal do not enter the mean.
"no signal" means that the variant was in the library but no mating with the target was seen in any replicate; the authors take this as a sign of poor binding, and no number exists.
As a blank, each scFv also met three strains without target: over library AAYL50, 18% of these pairings were detected, typically at 4.19 and seldom below 2.99. The control count says in how many pairings with the empty strains this scFv gave a signal.

| changes | mean log10 Kd (nM) | detected | empty controls |
|---|---|---|---|
| E32N A40E H98I | 4.85 | 3 of 3 | 5 of 9 |
| S25A S26P E32I | 1.74 | 3 of 3 | 2 of 9 |
| N37I S58M E61K | no signal | 0 of 3 | 0 of 9 |
| K24T S28H N37D | 2.21 | 3 of 3 | 1 of 9 |
| E32C A57M S58Q | no signal | 0 of 3 | 0 of 9 |
| K24H Y31K R60Q | no signal | 0 of 3 | 0 of 9 |
| T59A R60D H98N | 4.02 | 1 of 3 | 2 of 9 |
| A57F E61A L102S | 3.59 | 1 of 3 | 0 of 9 |
| S38L A57K S103Q | no signal | 0 of 3 | 0 of 9 |
| Q27P V29F E61W | 1.04 | 3 of 3 | 3 of 9 |
| K24H S28T S58A | 3.72 | 2 of 3 | 1 of 9 |
| E32N N35G | no signal | 0 of 3 | 0 of 9 |
| V29T A40H | 5.32 | 2 of 3 | 2 of 9 |
| K36A E61I Q95P | no signal | 0 of 3 | 1 of 9 |
| A40K Q95I R99K | 3.11 | 1 of 3 | 0 of 9 |
| S25M W56N L102G | 5.22 | 2 of 3 | 4 of 9 |
| T59Q R99V P101S | 4.62 | 1 of 3 | 1 of 9 |
| Y31E K36T T59Q | 4.26 | 1 of 3 | 2 of 9 |
| N35L R99H L100Q | 5.78 | 1 of 3 | 4 of 9 |
| A40F S62H R99T | no signal | 0 of 3 | 0 of 9 |
| S25K Y31T S58K | 3.46 | 3 of 3 | 4 of 9 |
| S28Q S38W Q96I | no signal | 0 of 3 | 1 of 9 |
| K24W S28A T59R | 3.25 | 3 of 3 | 3 of 9 |
| K24H S25N A57Y | 3.61 | 1 of 3 | 0 of 9 |
| K24S S26L R99Q | 1.73 | 3 of 3 | 0 of 9 |
| L30I A40D T59G | no signal | 0 of 3 | 0 of 9 |
| S25F S38R S103Q | 1.07 | 3 of 3 | 1 of 9 |
| Y31L N37P P101V | no signal | 0 of 3 | 0 of 9 |
| K24W W56V Y97P | 2.95 | 1 of 3 | 1 of 9 |
| S26V S58F E61Q | 2.28 | 1 of 3 | 1 of 9 |
| V29M V39D S62A | 3.85 | 2 of 3 | 7 of 9 |
| V29P T59R S103V | 3.29 | 1 of 3 | 1 of 9 |
| V29C E61G S62P | 1.69 | 3 of 3 | 4 of 9 |
| A57M H98W | no signal | 0 of 3 | 0 of 9 |
| Q27L Q96S H98F | 1.44 | 3 of 3 | 1 of 9 |
| S33K H98A | 1.04 | 3 of 3 | 1 of 9 |
| N37S V39N Q96L | no signal | 0 of 3 | 3 of 9 |
| A40W H98S L102W | 5.67 | 2 of 3 | 5 of 9 |
| K24S V29K S38P | 3.80 | 3 of 3 | 1 of 9 |
| V39D T59W L100M | no signal | 0 of 3 | 2 of 9 |
| S38P Q95Y Y97Q | 1.27 | 3 of 3 | 2 of 9 |
| E32C W56F | no signal | 0 of 3 | 1 of 9 |
| N35S S58V | 1.91 | 3 of 3 | 3 of 9 |
| S28P T59E S103F | 0.82 | 3 of 3 | 1 of 9 |
| V29M K36V S58I | 1.74 | 3 of 3 | 0 of 9 |
| K24A V29M S103M | 1.93 | 3 of 3 | 1 of 9 |
| K36R A40R | no signal | 0 of 3 | 1 of 9 |
| S38C S62D S103P | no signal | 0 of 3 | 0 of 9 |
| L30Q A57V T59M | 2.09 | 3 of 3 | 0 of 9 |
| Y31M E32M E61N | 1.44 | 3 of 3 | 0 of 9 |
| K24R A57M S103P | no signal | 0 of 3 | 1 of 9 |

In this assay the parent's reference entry averaged 0.65; its copy inside this library read 1.68.

From the AlphaSeq antibody data of Engelhart et al. 2022 (doi:10.1038/s41597-022-01779-4), copy in the FLAb collection.